Assay results as given in patent publication US20110046228A1 (priority 2009, published 2011).
Values joined by “and” are separate entries in the source; they are usually repeats but may differ in a detail not shown here. Equal entries are not always repeated.

Conditions: individual subjects; single 0.6 mg colchicine, plasma; A Day 1, A + B Day 18

## COc1cc2c(c(OC)c1OC)-c1ccc(OC)c(=O)cc1[C@@H](NC(C)=O)CC2 [Treatment A, (−)-N-[(7S, 12aS)-1,2,3,10-tetramethoxy-9-oxo-5,6,7,9-tetrahydrobenzo[a]heptalen-7-yl]-acetamide]
  Cmax: 1748 pg/mL and 1968 pg/mL and 1812 pg/mL and 2994 pg/mL
